Measured affinities in a library of Ab-14 heavy chain variants

From the AlphaSeq antibody data of Li et al. 2023 (doi:10.1038/s41467-023-39022-2), copy in the FLAb collection.

All variants were tested on one target, the spike HR2 peptide PDVDLGDISGINAS (SARS-CoV-2).

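The variants were designed computationally from a first round of random CDR variants and then made and measured. Group labels follow the data file (Ctrl: baseline library sampled from a position-specific scoring matrix, with some repeated check sequences; Rand: our label for a block that the file lists under HC and that is probably the random mutants of the ten best first-round binders; GP: Gaussian process model; GPLM: also part of the Gaussian process libraries; HC: hill climbing; Gen: genetic algorithm; Gibbs: Gibbs sampling; a sequence that several methods proposed may carry one label only). The assay is AlphaSeq: two haploid yeast populations carry antibody and antigen on their surface. The frequency of each diploid, read from paired DNA barcodes, reflects how well the two displayed proteins bind. Each replicate has its own calibration line, from reference interactions of the BCL2 family. There are six technical replicates.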

Parent scFv Ab-14: VH joined to VL by a 15-residue (Gly4Ser)3 linker. Changes lie in the heavy chain CDRs alone.
VH: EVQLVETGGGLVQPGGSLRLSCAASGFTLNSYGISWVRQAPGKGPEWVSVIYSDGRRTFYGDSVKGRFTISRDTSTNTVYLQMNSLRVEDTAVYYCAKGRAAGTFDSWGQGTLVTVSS
VL: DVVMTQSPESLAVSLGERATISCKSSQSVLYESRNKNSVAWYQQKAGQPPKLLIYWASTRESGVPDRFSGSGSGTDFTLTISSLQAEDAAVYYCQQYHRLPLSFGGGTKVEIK

Changes read parent residue, position, new residue, counted from the first residue of the VH shown.
This list holds designs with at most six substitutions.
Kd is apparent (estimated from mating counts) and averaged on the log scale over replicates with a signal. Smaller is tighter.
An entry "nd" has no value in the source: the pair was not observed among the diploids in any replicate. This suggests poor binding but is not conclusive.
Of ten entries with the parent sequence, four were seen in most replicates (averages 2.2 nM to 240 nM), three in one and three in none, so single entries are noisy.
The authors' rule: three or more of the six replicates give a measured affinity, fewer mean a poor binder.
A sequence measured in both rounds can read differently, since the two assays cover different ranges.
Three control strains display no target. For all heavy chain designs, 1% of the pairings with them gave a signal, with a median of 120 nM and one signal in twenty below 7.0 nM, so weak values seen in few replicates may be background.

With R100A A101E S107T [GPLM_Gen] the result was nd (0 of 6 replicates). With T28D Y32D I51Y T104W D106N [Rand] the result was nd (0 of 6 replicates). With T28E S31E R56K A101Q [GP_Gibbs] the result was 1.8 nM (6 of 6 replicates). With T28E S53A G61H R100E [GP_Gen] the result was 340 pM (6 of 6 replicates). Variant T28D G61I R100K S107Q [GP_Gibbs] showed 1.5 nM (6 of 6 replicates). For A101S A102S [Ctrl], the assay gave 130 nM (1 of 6 replicates). Variant G26R S31E G61T A101N [GP_HC] showed 730 pM (6 of 6 replicates). Variant R56H G61D R100Q A101V [GPLM_HC] gave 11 nM (6 of 6 replicates).

Variant G26H T28D A101T [GP_Gen] gave 27 nM (4 of 6 replicates). For S31D A102K G103L D106I [Rand], the assay gave nd (0 of 6 replicates). Variant T28S S63A R100K A101T S107N [GP_Gibbs] showed 5.0 nM (6 of 6 replicates). Variant T28S S31M S63Q R100E [GP_Gibbs] showed 11 nM (6 of 6 replicates). Variant T58Q G61H [Ctrl] gave 750 nM (4 of 6 replicates). Variant G26K T28S N30E R100Q [GP_Gibbs] showed 10 nM (1 of 6 replicates). Variant S31E G61S R100Q A101I [GP_HC] gave 1.8 nM (6 of 6 replicates). Variant G61A R100K A101E [GPLM_Gibbs] showed 740 pM (6 of 6 replicates).

With D106S S107Q [Ctrl] the result was nd (0 of 6 replicates). Variant S31E G61K A101L [GPLM_HC] showed 1.4 nM (5 of 6 replicates). Variant T28S S53A R100H [GPLM_Gen] showed 750 pM (6 of 6 replicates). With S31E A101I D106I [GPLM_HC] the result was nd (0 of 6 replicates). With N30D S31Q S53A [GP_HC] the result was 950 pM (6 of 6 replicates). For T28Q F59L D106P [Ctrl], the assay gave nd (0 of 6 replicates). Variant G26R G61N [Ctrl] showed nd (0 of 6 replicates). For G61T R100E A101T [GP_HC], the assay gave 9.0 nM (6 of 6 replicates).

With T28E G61I A101T S107A [GP_Gibbs] the result was nd (0 of 6 replicates). Variant N30G F59A G61H A101V [Ctrl] showed 3.3 nM (6 of 6 replicates). For T28N R100S A101T [GPLM_Gen], the assay gave nd (0 of 6 replicates). For T28D S31N A101T [GPLM_Gen], the assay gave 140 pM (2 of 6 replicates). Variant T28D G61I A101M [GPLM_Gibbs] showed 1.6 nM (6 of 6 replicates). Variant G26K T28E G61Q A101T [GP_Gen] gave 19 nM (2 of 6 replicates). Variant A101C D106H S107H [Ctrl] gave 3.3 nM (6 of 6 replicates). For G26S T28D G61I R100N [GP_Gen], the assay gave 4.8 nM (6 of 6 replicates).

Variant F27N S53A F59M [Ctrl] showed 5.8 nM (4 of 6 replicates). With S53A G103Q F105N D106K [Rand] the result was nd (0 of 6 replicates). With T28D S31E S107Q [GP_HC] the result was 32 nM (2 of 6 replicates). Variant T28K S35H V50C G61S [Ctrl] gave nd (0 of 6 replicates).

A selection of 3 entries from above:

changes	group	Kd	detected
G26R G61N	Ctrl	nd	0/6
S31E G61K A101L	GPLM_HC	1.4 nM	5/6
G26H T28D A101T	GP_Gen	27 nM	4/6